{"source": "ChEMBL document CHEMBL2057134", "about": "“Small molecule tertiary amines as agonists of the nuclear hormone receptor Rev-erbα” (Bioorg Med Chem Lett, 2012)", "target": "T1, Nuclear receptor subfamily 1 group D member 1 (Homo sapiens, UniProt P20393)", "T1 sequence (P20393 whole entry)": "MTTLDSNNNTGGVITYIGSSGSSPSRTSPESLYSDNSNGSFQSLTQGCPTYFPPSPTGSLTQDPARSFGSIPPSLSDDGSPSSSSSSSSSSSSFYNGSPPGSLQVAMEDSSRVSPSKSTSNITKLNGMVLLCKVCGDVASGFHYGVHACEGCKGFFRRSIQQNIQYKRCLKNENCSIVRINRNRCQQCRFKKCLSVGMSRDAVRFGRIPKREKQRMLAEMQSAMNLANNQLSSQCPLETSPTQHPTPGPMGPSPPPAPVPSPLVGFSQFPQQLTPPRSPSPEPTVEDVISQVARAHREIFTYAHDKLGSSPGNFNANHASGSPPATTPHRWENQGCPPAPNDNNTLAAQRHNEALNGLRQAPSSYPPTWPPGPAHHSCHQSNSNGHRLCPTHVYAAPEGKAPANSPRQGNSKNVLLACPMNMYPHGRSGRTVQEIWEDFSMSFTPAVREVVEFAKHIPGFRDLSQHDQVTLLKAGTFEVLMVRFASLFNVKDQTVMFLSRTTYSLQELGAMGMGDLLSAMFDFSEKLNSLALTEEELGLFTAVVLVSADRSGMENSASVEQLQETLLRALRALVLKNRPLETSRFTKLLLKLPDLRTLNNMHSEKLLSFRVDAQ", "assay": "Agonist activity at Rev-Erbalpha expressed in HEK293 cells coexpressing […] promoter assessed as repression of transcription after 24 hrs by dual-Glo luciferase assay", "assay_type": "functional, cell-based", "procedure,_shortened": "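Cells co-transfected with full-length Rev-erbα expression plasmid and Bmal1 promoter-driven luciferase reporter. Compounds first screened at 1 and 10 μM; those active at 10 μM titrated in eleven-point dose-response to derive EC50. Renilla luciferase used for normalization and toxicity monitoring. Average of 2 or more experiments.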"}
{"smiles": "CCOC(=O)N1CCC(CN(Cc2ccc(Cl)cc2)Cc2ccc([N+](=O)[O-])s2)C1", "note": "(racemic) [SR9009]", "values": [{"measurement": "EC50", "result": 700, "unit": "nM"}]}
